From patent US4906655A, “Novel 1,2-cyclohexylaminoaryl amides useful as analgesic agents” (dated 1990)

Amino acid sequences for entries named in this document (tags omitted).
UniProt P41144, whole entry: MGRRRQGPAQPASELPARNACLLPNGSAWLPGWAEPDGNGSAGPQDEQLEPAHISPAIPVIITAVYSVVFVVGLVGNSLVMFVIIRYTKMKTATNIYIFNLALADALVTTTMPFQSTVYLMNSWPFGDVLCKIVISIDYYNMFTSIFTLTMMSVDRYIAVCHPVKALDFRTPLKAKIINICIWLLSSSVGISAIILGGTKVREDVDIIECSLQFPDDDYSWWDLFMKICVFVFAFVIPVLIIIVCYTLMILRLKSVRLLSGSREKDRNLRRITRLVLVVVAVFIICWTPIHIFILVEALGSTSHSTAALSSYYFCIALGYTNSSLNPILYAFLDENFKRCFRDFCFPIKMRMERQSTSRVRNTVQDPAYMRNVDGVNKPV

Biological target: kappa opioid receptor (Cavia porcellus, UniProt P41144)
Experiment: kappa opioid receptor binding, tritiated etorphine, brain homogenates
Details: monohydrochloride; for Ki: read-out: Opioid Binding ki kappa, guinea pig brain homogenates, [3H]etorphine with 200 nM DADLE and 200 nM DAGO, mean of at least two experiments in triplicate; for mu/k (mu/kappa ratio of ki): ratio of mu ki to kappa ki

| SMILES | Ki | mu/k (mu/kappa ratio of ki) |
| --- | --- | --- |
| CN(C(=O)C1Cc2cccc3cccc1c23)C1CCCCC1N1CCCC1 (single isomer, unassigned) [1a] | 16.3 nM | – |
| CN(C(=O)C1Cc2cccc3cccc1c23)C1CCCCC1N1CCCC1.Cl (single isomer, unassigned) [1a] | – | 161 |
| CN(C(=O)C1Cc2cccc3cccc1c23)C1CCCCC1N1CCCC1 (single isomer, unassigned) [1b] | 31 nM | – |
| CN(C(=O)C1Cc2cccc3cccc1c23)C1CCCCC1N1CCCC1.Cl (single isomer, unassigned) [1b] | – | 12.5 |
| CN(C(=O)C1Cc2cccc3cccc1c23)[C@H]1CC[C@@]2(CCCO2)C[C@@H]1N1CCCC1 (single isomer, unassigned) [1e] | 0.18 nM | 1420 |
| CN(C(=O)C1Cc2cccc3cccc1c23)[C@H]1CC[C@@]2(CCCO2)C[C@@H]1N1CCCC1 (single isomer, unassigned) [1f] | 1.2 nM | 227 |

Some compounds may have been tested in ways that are not shown here.
